## Apparent affinities of Ab-14 variants for a coronavirus HR2 peptide

The measurements come from Li et al. 2023 (doi:10.1038/s41467-023-39022-2) through the FLAb antibody collection.

Target: peptide PDVDLGDISGINAS, taken from heptad repeat 2 (HR2) of SARS-CoV-2 spike.

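The parent was found by panning a naive human phage display library on the peptide. These sequences belong to a second round, designed from the earlier measurements on random variants of the parent. Group labels follow the data file (Ctrl: baseline library sampled from a position-specific scoring matrix, with some repeated check sequences; Rand: our label for a block that the file lists under HC and that is probably the random mutants of the ten best first-round binders; En: ensemble of fine-tuned language models; GP: Gaussian process model; GPLM: also part of the Gaussian process libraries; HC: hill climbing; Gen: genetic algorithm; Gibbs: Gibbs sampling; a sequence that several methods proposed may carry one label only). Affinity was read by AlphaSeq, a pooled yeast mating assay with surface-displayed partners. Binding brings cells together so that they mate, and sequencing counts the barcode pairs among the diploids. Scores were corrected for input abundance and mapped to Kd with protein pairs of known affinity run in the same pool. Mating was done six times.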

Parent scFv Ab-14: VH joined to VL by the linker GGGGSGGGGSGGGGS. Changes lie in the heavy chain CDRs alone.
VH: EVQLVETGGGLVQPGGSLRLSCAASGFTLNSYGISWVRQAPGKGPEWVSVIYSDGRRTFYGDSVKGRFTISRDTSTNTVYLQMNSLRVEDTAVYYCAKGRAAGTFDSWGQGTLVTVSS
VL: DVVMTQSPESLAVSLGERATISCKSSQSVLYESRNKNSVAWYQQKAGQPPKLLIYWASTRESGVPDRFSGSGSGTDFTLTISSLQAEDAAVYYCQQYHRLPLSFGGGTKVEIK

Changes read parent residue, position, new residue, counted from the first residue of the VH shown. This list holds designs with at most six substitutions. Values are apparent Kd, the geometric mean of the replicates that gave a signal; lower means stronger binding. An entry "not detected" has no value in the source: the pair was not observed among the diploids in any replicate. This suggests poor binding but is not conclusive. The range of this assay differs from that of the first round, and the authors advise against merging the two. The authors' rule: three or more of the six replicates give a measured affinity, fewer mean a poor binder. Empty control strains, which show no peptide, gave a signal in 1% of pairings with all heavy chain designs; the median was 120 nM and 95% of these signals were weaker than 7.0 nM. No background was subtracted. Where one sequence has several entries in the source, the replicates are pooled. Of ten entries with the parent sequence, four were seen in most replicates (averages 2.2 nM to 240 nM), three in one and three in none, so single entries are noisy.

changes	group	Kd (apparent)	detected
A101V S107M	GPLM_Gen	54 nM	2/6
S31E G61H A101S	GP_HC	15 nM	6/6
L29S N30D F105A D106L	Rand	not detected	0/6
T28Q L29I S63Q	Ctrl	390 nM	2/6
S63K K65A	Ctrl	not detected	0/6
G61A S63D R100E S107N	GP_Gibbs	2.8 nM	6/6
S31D R100K A101E D106I	GPLM_HC	not detected	0/6
T28S A101H S107V	Ctrl	74 nM	4/6
G26N S31D F59Q G61I F105M	Rand	not detected	0/6
T28E Y60M G103A	Ctrl	not detected	0/6
G61C R100Q A101T	GP_HC	81 nM	6/6
S31D F59Q G61I G103D F105T	Rand	not detected	0/6
V64L R100Q T104V S107T	Ctrl	not detected	0/6
I34E K65R T104A S107T	Ctrl	not detected	0/6
F27T T28I F59A G61I	Ctrl	not detected	0/6
L29I N30E	Ctrl	110 nM	4/6
T28E N30G D106K	Ctrl	2.3 µM	1/6
T28S G61I R100N A101T	GPLM_Gibbs	8.1 nM	6/6
T28S R100Q A101I	GPLM_Gen	7.3 nM	6/6
G61D S63D R100Q A101V	GP_HC	19 nM	5/6
S31D G61D D106V	GPLM_HC	not detected	0/6
T28D R56K G61A A101N	GP_Gen	340 pM	6/6
T28D G61A S63R R100E	GP_Gen	4.3 nM	6/6
T28Q S31D D106V	GP_HC	not detected	0/6
T28E G61R S63A R100K A101T	GP_Gibbs	120 nM	5/6
S31E R56L F59A	Ctrl	860 pM	6/6
S63F A101E	Ctrl	4.1 nM	1/6
T28D R56L R100K A101T	GP_Gibbs	2.1 nM	5/6
S31E D62W G103V S107G	GP_HC	not detected	0/6
S31Q G55A G61S T104F	Rand	not detected	0/6
F59G G61I	Ctrl	770 pM	6/6
T28E S31E S63P A101T	GP_Gen	1.8 nM	6/6
G61K R100T F105G	Ctrl	29 nM	1/6
F27T R57T K65E	Ctrl	410 nM	1/6
S31E G61H T104S	GP_HC	15 nM	4/6
T28G R100W A101T	GPLM_Gibbs	8.5 nM	3/6
T28S	Ctrl+GPLM_Gen	4.9 nM	12/12
G26K A102P	Ctrl	not detected	0/6
T28D G61V R100E S107T	GP_Gibbs	620 pM	2/6
T28D G61I R100Q A101V	GPLM_Gibbs	990 pM	6/6
T28R G61D S63D R100Q A101T	GP_HC	not detected	0/6
T28D S31E S53A G61S R100Q A101N	En_HC	930 pM	6/6
L29C S53A G61N F105N D106K	Rand	not detected	0/6
G61D R100H A101L	GPLM_HC	16 nM	6/6
T28D F59A S107Q	GP_Gen	4.7 nM	6/6
R57Y G61D R100Q A101L S107T	Rand	not detected	0/6
T28S S31W G61A R100N	GPLM_Gen	28 nM	6/6
S31E R56K A101T S107G	GP_Gibbs	8.2 nM	6/6
F27P S31D F59Q G61I	GP_HC	190 nM	1/6
N30K S31D	Ctrl	5.8 nM	4/6
T28H S31D G61A A101L	GP_HC	1.8 nM	6/6
S53A A101T S107T	GPLM_Gen	1.5 nM	6/6
S31E G61S R100F S107L	GP_HC	1.3 nM	6/6
A101V S107N	GPLM_Gen	260 nM	1/6
F27E S31D F59Q G61I	GP_HC	not detected	0/6
N30D S53A A101L	GP_HC	660 pM	6/6
T28S R100V A101E	GPLM_Gibbs	2.4 nM	5/6
G26H S31E A102I	Ctrl	not detected	0/6
A101L D106E	Ctrl	170 nM	5/6
R56L A101R	Ctrl	130 nM	6/6
S63A S107L	Ctrl	75 nM	1/6
N30D G61A S63D	GPLM_Gen	1.1 nM	5/6
F27W G33A G61D R100Q A101L	Rand	not detected	0/6
R56K R100Q A101V	GPLM_Gen	12 nM	6/6

Again, the first 3 entries without any signal:

{"changes": "L29S N30D F105A D106L", "group": "Rand", "Kd (apparent)": "not detected", "detected": "0/6"}
{"changes": "S63K K65A", "group": "Ctrl", "Kd (apparent)": "not detected", "detected": "0/6"}
{"changes": "S31D R100K A101E D106I", "group": "GPLM_HC", "Kd (apparent)": "not detected", "detected": "0/6"}